Measurements published in PubChem BioAssay AID529 (NMMLSC, 2006).
The list shows a part of the results, in another mix than the full data. Records with an inconclusive call do not appear. The source made the active and inactive calls.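 How the source made its calls: active means inhibition above 50%; inconclusive means compound itself fluorescent, judged against control cell fluorescence; inactive means the rest.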

Protein sequences, listed by entry. Tags and fused reporters are not part of them.
UniProt P13612, whole entry, looked up: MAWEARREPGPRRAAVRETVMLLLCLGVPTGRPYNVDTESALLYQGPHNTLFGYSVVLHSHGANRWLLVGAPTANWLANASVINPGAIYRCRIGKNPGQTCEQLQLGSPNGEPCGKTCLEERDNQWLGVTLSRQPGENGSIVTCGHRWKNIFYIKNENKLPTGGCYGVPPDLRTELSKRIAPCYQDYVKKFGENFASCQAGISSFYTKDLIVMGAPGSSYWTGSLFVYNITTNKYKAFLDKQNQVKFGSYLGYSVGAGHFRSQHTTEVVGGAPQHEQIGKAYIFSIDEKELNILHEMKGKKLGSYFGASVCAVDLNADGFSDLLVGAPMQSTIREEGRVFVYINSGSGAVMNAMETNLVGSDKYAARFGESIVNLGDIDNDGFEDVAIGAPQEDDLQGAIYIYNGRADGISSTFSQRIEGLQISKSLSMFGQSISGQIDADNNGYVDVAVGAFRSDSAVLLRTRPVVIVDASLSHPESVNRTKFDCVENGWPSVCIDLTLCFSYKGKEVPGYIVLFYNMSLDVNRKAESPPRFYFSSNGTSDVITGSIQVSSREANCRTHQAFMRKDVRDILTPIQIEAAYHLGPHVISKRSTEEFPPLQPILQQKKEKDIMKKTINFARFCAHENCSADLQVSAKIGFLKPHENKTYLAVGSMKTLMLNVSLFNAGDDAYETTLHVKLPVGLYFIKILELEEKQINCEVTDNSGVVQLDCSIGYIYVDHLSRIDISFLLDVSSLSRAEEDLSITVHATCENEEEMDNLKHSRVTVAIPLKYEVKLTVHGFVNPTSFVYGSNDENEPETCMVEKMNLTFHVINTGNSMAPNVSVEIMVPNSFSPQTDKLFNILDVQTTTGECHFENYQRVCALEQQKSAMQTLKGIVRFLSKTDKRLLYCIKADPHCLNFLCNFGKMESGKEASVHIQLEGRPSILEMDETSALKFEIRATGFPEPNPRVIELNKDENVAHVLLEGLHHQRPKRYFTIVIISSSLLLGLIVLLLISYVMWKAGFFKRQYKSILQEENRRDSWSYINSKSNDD

target: Integrin alpha-4 (Homo sapiens) (UniProt P13612); assay: inhibitors of LDV-FITC binding to Mn2+-activated VLA-4, primary screen, Jurkat cells (AID 529); conditions: LDV-FITC binding with Mn2+, flow cytometry, stronger effect = higher value, screened at 10 µM (by protocol), 100% = Mn2+-driven binding gain fully reversed;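 further: 0% = Mn2+ stimulated cells lacking compound and 100% = ligand binding without Mn2+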

Compound	inhibition
CP(=S)(Nn1cnnc1)Oc1ccccc1 (stereo unspecified)	inactive: -2.5%
Cc1ccccc1NP(C)(=O)Nc1ccccc1C	inactive: -4%
CP(=O)(Nc1ccc2c(c1)OCCO2)Oc1ccccc1 (stereo unspecified)	inactive: -21%
CN(C)CCOC(=O)C(O)(c1ccccc1)C1CCCCC1 (stereo unspecified)	inactive: -32%
CP(=O)(Nc1ccccn1)Oc1ccccc1 (stereo unspecified)	inactive: -23%
Cc1nc2ccc3ccccc3c2o1.O=[N+]([O-])c1cc([N+](=O)[O-])c(O)c([N+](=O)[O-])c1	75%
